One compound from patent US20140088192A1, “SUBCUTANEOUSLY INFUSIBLE LEVODOPA PRODRUG COMPOSITIONS AND METHODS OF INFUSION” (SynAgile Corporation, priority 2010, published 2014) can be followed below.

Data set [1] is described as follows: Hydrolysis of LDEE salts to LD in aqueous solution, monitored by HPLC. It counts as physicochemical. The note with it: 2.5 M, pH 4.5 citrate, 4 days at 29° C.-30° C.
The nature of data set [2]: Achievable concentration and density of concentrated LDEE salt solutions.

Molecules are shown by their SMILES.

For `CCOC(=O)[C@@H](N)Cc1ccc(O)c(O)c1.Cl` [LDEE.HCl, LDEE Hydrochloride], in data set [1], the “% of the LDEE.HCl hydrolyzed” value is listed as 3.4%. Besides, the density result is given as “about 1.17 g/mL” in data set [2] (2.6 M LDEE.HCl solution) and “about 1.19 g/mL” in data set [2] (2.9 M LDEE.HCl solution).
